Assay results as given in patent publication US9663508B2, “Biaryl acyl-sulfonamide compounds as sodium channel inhibitors” (AMGEN INC., priority 2013, dated 2017).

By UniProt entry, the sequences of proteins in these tests, tags left out.
UniProt Q14524, whole entry: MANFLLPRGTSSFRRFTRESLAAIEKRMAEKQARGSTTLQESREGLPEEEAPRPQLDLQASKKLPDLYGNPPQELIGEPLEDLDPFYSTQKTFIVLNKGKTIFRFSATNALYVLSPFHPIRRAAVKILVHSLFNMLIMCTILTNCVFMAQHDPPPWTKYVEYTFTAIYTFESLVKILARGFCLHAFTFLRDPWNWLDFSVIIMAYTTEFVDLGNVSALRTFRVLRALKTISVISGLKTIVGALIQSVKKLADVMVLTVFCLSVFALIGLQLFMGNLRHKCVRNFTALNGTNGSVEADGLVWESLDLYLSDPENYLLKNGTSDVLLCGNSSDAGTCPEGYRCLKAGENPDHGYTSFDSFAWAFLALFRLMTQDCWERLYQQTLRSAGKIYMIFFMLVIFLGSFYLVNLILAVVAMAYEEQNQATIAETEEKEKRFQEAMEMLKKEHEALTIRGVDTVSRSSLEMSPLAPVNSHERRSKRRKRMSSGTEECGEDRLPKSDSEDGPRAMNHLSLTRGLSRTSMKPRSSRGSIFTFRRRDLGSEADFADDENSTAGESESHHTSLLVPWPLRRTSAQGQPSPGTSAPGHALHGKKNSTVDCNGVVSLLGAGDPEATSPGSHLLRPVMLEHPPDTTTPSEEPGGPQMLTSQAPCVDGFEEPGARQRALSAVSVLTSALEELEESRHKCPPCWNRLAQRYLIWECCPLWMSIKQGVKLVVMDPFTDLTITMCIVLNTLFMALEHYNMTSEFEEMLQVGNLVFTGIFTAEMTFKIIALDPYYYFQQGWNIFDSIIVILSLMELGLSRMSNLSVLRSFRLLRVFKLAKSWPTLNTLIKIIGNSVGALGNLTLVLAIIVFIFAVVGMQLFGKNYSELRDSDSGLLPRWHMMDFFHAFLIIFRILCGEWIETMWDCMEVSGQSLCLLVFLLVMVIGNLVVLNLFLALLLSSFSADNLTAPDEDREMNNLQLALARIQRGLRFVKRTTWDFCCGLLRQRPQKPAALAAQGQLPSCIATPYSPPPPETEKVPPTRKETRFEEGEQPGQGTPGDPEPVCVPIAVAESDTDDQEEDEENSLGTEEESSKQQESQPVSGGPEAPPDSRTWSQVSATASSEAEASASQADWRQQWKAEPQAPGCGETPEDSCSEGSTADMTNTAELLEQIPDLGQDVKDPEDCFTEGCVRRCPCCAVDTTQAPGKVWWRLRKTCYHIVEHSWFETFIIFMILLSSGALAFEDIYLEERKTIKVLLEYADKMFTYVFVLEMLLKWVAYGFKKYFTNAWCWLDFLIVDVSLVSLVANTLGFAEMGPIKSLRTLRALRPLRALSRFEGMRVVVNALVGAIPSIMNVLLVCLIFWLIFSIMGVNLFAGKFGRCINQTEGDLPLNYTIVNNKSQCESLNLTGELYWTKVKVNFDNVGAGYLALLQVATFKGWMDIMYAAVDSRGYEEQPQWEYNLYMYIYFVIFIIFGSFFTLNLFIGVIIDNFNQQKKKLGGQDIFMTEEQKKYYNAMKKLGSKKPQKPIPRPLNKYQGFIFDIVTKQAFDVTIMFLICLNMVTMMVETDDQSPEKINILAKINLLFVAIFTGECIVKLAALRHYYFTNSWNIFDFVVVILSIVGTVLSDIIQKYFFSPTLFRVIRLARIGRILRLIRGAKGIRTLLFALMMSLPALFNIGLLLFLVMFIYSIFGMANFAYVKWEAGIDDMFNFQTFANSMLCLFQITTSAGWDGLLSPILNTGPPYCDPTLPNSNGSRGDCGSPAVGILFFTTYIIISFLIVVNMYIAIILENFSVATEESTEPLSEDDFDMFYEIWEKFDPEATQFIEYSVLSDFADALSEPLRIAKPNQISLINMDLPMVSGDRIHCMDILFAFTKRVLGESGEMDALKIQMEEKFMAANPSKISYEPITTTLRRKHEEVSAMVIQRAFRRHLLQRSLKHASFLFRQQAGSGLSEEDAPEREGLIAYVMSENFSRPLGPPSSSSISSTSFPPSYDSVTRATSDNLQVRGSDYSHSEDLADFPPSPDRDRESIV
UniProt Q15858, whole entry: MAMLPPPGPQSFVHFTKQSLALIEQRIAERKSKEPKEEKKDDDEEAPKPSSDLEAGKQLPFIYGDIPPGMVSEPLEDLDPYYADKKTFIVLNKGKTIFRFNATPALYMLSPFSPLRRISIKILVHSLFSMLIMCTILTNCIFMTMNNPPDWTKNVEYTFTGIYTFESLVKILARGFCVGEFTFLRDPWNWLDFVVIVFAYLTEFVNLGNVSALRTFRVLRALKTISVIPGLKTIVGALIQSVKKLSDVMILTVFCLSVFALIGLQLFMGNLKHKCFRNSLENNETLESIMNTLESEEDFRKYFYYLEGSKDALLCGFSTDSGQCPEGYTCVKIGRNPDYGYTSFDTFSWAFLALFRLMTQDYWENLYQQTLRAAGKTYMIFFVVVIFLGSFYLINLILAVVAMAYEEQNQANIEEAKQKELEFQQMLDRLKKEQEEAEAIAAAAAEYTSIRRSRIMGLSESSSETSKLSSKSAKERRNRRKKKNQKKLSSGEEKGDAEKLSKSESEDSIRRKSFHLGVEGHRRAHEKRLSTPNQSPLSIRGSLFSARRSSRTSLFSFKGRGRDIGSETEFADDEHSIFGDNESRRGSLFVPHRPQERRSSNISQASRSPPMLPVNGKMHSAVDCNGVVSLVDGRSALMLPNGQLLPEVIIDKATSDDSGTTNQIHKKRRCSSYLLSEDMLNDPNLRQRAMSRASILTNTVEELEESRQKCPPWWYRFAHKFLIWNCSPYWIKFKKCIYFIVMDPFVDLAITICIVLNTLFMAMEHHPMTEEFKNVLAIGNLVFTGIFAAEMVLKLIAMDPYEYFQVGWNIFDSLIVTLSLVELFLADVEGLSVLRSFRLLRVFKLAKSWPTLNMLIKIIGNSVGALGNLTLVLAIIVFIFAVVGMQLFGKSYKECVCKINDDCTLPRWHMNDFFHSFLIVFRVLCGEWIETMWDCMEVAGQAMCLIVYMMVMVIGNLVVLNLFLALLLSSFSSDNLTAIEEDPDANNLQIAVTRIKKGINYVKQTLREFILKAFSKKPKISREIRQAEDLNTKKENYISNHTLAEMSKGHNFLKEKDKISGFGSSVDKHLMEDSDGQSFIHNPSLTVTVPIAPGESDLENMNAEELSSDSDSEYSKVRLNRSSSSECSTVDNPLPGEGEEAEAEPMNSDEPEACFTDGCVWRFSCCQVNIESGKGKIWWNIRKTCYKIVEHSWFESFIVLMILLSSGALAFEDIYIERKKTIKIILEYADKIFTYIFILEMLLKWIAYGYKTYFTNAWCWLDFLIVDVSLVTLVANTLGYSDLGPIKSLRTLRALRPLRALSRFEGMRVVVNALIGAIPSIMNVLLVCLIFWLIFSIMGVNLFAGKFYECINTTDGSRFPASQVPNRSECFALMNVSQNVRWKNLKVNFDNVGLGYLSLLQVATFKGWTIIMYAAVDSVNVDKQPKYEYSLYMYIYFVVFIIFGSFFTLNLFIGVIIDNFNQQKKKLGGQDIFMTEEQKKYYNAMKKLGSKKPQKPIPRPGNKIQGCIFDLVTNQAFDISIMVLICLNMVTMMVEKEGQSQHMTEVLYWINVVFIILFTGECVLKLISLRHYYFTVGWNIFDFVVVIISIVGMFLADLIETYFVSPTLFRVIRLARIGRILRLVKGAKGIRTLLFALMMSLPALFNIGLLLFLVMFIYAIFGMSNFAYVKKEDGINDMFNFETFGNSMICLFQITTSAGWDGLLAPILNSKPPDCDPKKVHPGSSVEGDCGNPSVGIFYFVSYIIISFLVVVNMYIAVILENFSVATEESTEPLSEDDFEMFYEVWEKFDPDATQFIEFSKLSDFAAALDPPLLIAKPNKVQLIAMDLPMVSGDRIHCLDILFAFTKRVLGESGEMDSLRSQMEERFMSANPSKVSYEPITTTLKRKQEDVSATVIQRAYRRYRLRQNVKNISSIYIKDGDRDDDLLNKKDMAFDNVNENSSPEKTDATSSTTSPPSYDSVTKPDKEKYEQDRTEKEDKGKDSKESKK

Experiments:
[1] = molecular target: human Nav 1.5 (Homo sapiens (Human), UniProt Q14524); test: Nav 1.5 IonWorks Quattro (IWQ) in vitro assay; type: cell-based; details: read-out: NAV 1.5 IWQ IC50
[2] = molecular target: human Nav1.7 (Homo sapiens (Human), UniProt Q15858); test: Nav 1.7 in vitro PatchXpress (PX) assay; type: cell-based; details: read-out: NAV 1.7 PX IC50

SMILES: CCCCC(Oc1ncc(-c2cc(F)c(C(=O)NS(C)(=O)=O)cc2C)cc1Cl)c1ccccc1Cl (centres unmarked)
- IC50 [1]: 4.41 µM
- IC50 [2]: 0.0498 µM
